Literature values as cited in PMC4955735 (Anesthesiology, 2016).

Details: indicator complex of the competition assay; cited from earlier work

C[C@]12N3Cc4c(c(OCCCS(=O)(=O)[O-])c5ccccc5c4OCCCS(=O)(=O)[O-])CN1C(=O)N1CN4C(=O)N5CN6C(=O)N7CN8C(=O)N9Cc%10c(c(OCCCS(=O)(=O)[O-])c%11ccccc%11c%10OCCCS(=O)(=O)[O-])CN%10C(=O)N(CN%11C(=O)N(CN%12C(=O)N(CN(C3=O)[C@]12C)[C@@H]4[C@H]%125)[C@@H]6[C@H]%117)[C@]8(C)[C@@]9%10C.[Na+].[Na+].[Na+].[Na+] [Calabadion 2]
Ka of calabadion 2•Rhodamine 6G complex: 2.3 ± 0.2 x 10^6 M^−1
